Binding of CDR-mutated scFvs to a peptide of the spike HR2 region

Data: MIT Lincoln Laboratory AlphaSeq set, Li et al. 2023, doi:10.1038/s41467-023-39022-2, as distributed in FLAb.

The target is the same throughout: PDVDLGDISGINAS, from the HR2 region of SARS-CoV-2 spike.

Each scFv is VH, three GGGGS repeats, VL, as in the parent Ab-14, and differs from it in the CDRs of the light chain only.
VH: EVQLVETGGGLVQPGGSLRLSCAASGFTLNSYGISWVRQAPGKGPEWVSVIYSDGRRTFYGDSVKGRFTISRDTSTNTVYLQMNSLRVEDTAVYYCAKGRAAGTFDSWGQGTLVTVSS
VL: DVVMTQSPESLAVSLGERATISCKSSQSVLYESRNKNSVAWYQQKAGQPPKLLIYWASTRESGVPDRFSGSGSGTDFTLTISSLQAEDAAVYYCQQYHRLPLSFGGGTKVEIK

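The variants were designed computationally from a first round of random CDR variants and then made and measured. Group labels follow the data file (Ctrl: baseline library sampled from a position-specific scoring matrix, with some repeated check sequences; En: ensemble of fine-tuned language models; GP: Gaussian process model; HC: hill climbing; Gen: genetic algorithm; Gibbs: Gibbs sampling; a sequence that several methods proposed may carry one label only). The assay is AlphaSeq: two haploid yeast populations carry antibody and antigen on their surface. After mating in shaken culture at 30 °C for 16 h, diploids were selected and their barcode pairs sequenced. Each replicate has its own calibration line, from reference interactions of the BCL2 family. Each pool was mated in six replicate cultures.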

The parent's light chain CDRs are KSSQSVLYESRNKNSVA, WASTRES, QQYHRLPLS; each variant's own CDRs replace them letter for letter. Affinities are written as log10 Kd with Kd in nM; a lower number is a better binder. The mean shown is taken over the replicates in which the pair was detected. Where no diploid with the target was found in that replicate, the entry reads "n.d.": below detection, most likely a poor binder, though not proof of it. Order: sorted from the lowest average up, undetected variants last. The authors averaged sequences with at least three values out of six and counted those with two or fewer as poor binders. Values of this round are not directly comparable with the first-round values of the same sequences. Background: pairings of all light chain designs with three empty control strains gave a value in 4% of cases (median 2.64, 5th percentile 1.59). Values in that range, when seen in few replicates, are hard to tell from nonspecific mating. Also given: how often the same scFv was detected with the empty control strains, with their mean in brackets.

CDR-L1,CDR-L2,CDR-L3,group,"replicates, log10 nM",mean log10 Kd (nM),control signals
KLSQSVLYEWRNKNSVA,NASTRES,QQYHRLPLS,GP_Gen,-0.38 / -0.37 / -0.60 / -0.53 / -0.53 / -0.44,-0.47,0/18
KLSQQMLYESRNKNNVA,AASQRED,QQYHRLPLS,GP_Gibbs,-0.20 / -0.44 / -0.32 / -0.63 / -0.67 / -0.41,-0.44,1/18 (2.33)
KLSQSVLYESRNKNSVA,NGSQRES,QQYHRLPLS,GP_Gen,-0.31 / -0.32 / -0.52 / -0.62 / -0.41 / -0.24,-0.40,1/18 (2.55)
KLSQSNDYEDRNANNVA,NASQRES,QQYHRLPLS,GP_Gibbs,-0.23 / -0.04 / -0.45 / -0.49 / -0.22 / -0.10,-0.25,0/18
KFSQSDLYESRNKNSVA,DASTRES,QQYHRLPLS,GP_Gen,-0.32 / -0.04 / -0.19 / -0.37 / -0.27 / -0.14,-0.22,0/18
KSPQGVLYESRNKNSVA,GASLRES,QQYHRLPLS,GP_HC,-0.19 / -0.18 / -0.13 / -0.26 / 0.05 / -0.01,-0.12,1/18 (2.31)
KLKQSWLYESRNKNSVA,NASTRMS,QQYHRLPLS,GP_Gen,-0.07 / 0.02 / -0.23 / -0.29 / -0.02 / 0.00,-0.10,0/18
KSSQSVDAESRNKNSVA,DASTRES,QQYHRLPLS,GP_HC,0.17 / -0.03 / -0.06 / -0.28 / -0.25 / -0.03,-0.08,0/18
KQSQSVLMESRNCNSVA,DASTRES,QQYVRLPLS,GP_HC,0.07 / -0.24 / -0.12 / -0.17 / -0.18 / 0.20,-0.07,0/18
KVSQSWLYEQRMKQSVA,NASERES,QQYHRLPLS,GP_Gibbs,0.02 / -0.15 / 0.02 / 0.03 / 0.15 / 0.03,0.02,2/18 (2.57)
KLKQSWLYESRNKNSVA,NASTRES,QQYHRLPLS,GP_Gen,0.36 / 0.10 / -0.07 / 0.14 / -0.02 / 0.37,0.15,2/18 (2.87)
KLEQSVLYESRNKNSVA,GASTRES,QQYHRLPLS,GP_Gen,0.46 / 0.23 / 0.04 / 0.26 / 0.33 / 0.23,0.26,1/18 (2.60)
HLSQSVLYEDRNKNSVA,NASQRES,QQYHRLPLS,GP_Gen,0.46 / 0.52 / 0.10 / 0.36 / 0.41 / 0.48,0.39,0/18
KSSQSWLYESRNKNSVA,HASTRED,QQYHRLPLS,GP_HC,0.64 / 0.52 / 0.31 / 0.69 / 0.32 / 0.40,0.48,0/18
HISQMVMYGSCNKNNVA,QVSTREE,QQYHHLPLS,En_HC,0.60 / 0.55 / 0.71 / 0.59 / 0.60 / 0.85,0.65,2/18 (3.09)
RINVFQNVSTQGNNSIA,GAEQKVH,QQYMRLPLY,En_Gibbs,0.73 / 0.95 / 0.70 / 0.77 / 0.74 / 0.88,0.79,0/18
HMQNEWQGGSRAENNVA,EGTVVCD,QQYATLPLQ,En_Gibbs,0.36 / 1.04 / 0.44 / 1.70 / 0.53 / n.d.,0.81,0/18
HITYGMMVHGRHAKSIA,QAETRAK,QQYDRLPLA,En_Gen,0.45 / 0.47 / 1.33 / 0.77 / 0.72 / 1.33,0.84,2/18 (2.27)
KLSMTHQMESVNRNSVA,ELVTRMR,QQYNRLPLS,En_Gen,1.17 / 0.74 / 0.96 / 0.82 / 0.65 / 0.86,0.87,1/18 (2.86)
MLTMFNNENQGWSNNIA,DTNNLQE,QQYSRLPFM,En_Gibbs,0.51 / 0.97 / 0.94 / 0.86 / 1.32 / 1.25,0.98,2/18 (2.14)
HMSALTLMGSRARNSVA,QMTTREN,QQYDRLPLA,En_Gen,1.79 / 0.74 / 0.97 / 0.40 / 1.18 / 1.02,1.02,1/18 (1.45)
RLYNQGTDQIQHAQSIA,DRDEVDS,QQYAHLPLS,En_Gibbs,1.27 / 0.37 / 0.95 / 1.34 / 1.00 / 1.79,1.12,0/18
KSSQSVMYESRLCNSVA,NAVTRES,QQYHRLPLS,Ctrl,n.d. / 0.61 / 1.07 / 1.19 / 1.81 / 1.48,1.23,0/18
MISQVMNTLTRHGNNVA,DLEEREE,QQYFRLPLS,En_Gen,n.d. / n.d. / n.d. / 1.18 / 1.37 / 1.60,1.38,0/18
KIDENTNHGANRDNNIA,EARTVGA,QQYFRLPII,En_Gibbs,1.80 / 1.40 / 1.16 / 1.45 / 1.78 / 1.70,1.55,1/18 (3.02)
HISTSMRYQSSLKNAIA,NAQTRES,QQYHRLPLS,En_HC,1.55 / 2.74 / 1.68 / 1.22 / 1.12 / 1.03,1.56,0/18
NIRGVEFESAMMGNAVA,GMSLVMA,QQYFRLPLH,En_Gibbs,n.d. / 2.66 / n.d. / n.d. / 0.93 / 1.21,1.60,0/18
KVCQSVLYESRNKNSVA,WASTRES,QQYHRLPLS,Ctrl,1.53 / 1.16 / 1.81 / 1.76 / 2.01 / 1.48,1.62,0/18
MISQLMNLGQFAINSVA,QASIRNE,QQYDRLPLV,En_Gen,2.29 / 2.37 / 0.58 / 1.39 / 2.02 / 1.73,1.73,0/18
KITQILFPYGNSWHSVA,NANTLLA,QQYYMLPLM,En_Gibbs,n.d. / 1.92 / n.d. / n.d. / n.d. / n.d.,1.92,1/18 (1.34)
KSSQGLMYESRNKNSVA,WASTRES,QQYHRLPLS,Ctrl,1.25 / 2.94 / 2.88 / 2.06 / 1.32 / 1.52,1.99,0/18
MISQLFMYGSRNYNSIA,QASTRES,QQYDRLPLI,En_HC,1.43 / 1.43 / 2.84 / 2.74 / 1.82 / 1.88,2.02,2/18 (2.63)
KSSQSRLEESRNKNSVA,QASTHES,QQYHTLPLS,Ctrl,n.d. / 1.71 / n.d. / 1.65 / 3.12 / 2.59,2.27,1/18 (2.41)
KLSLFYRVETQNKYSVA,DNSTRES,QDYDRLPLS,En_HC,n.d. / 2.51 / n.d. / n.d. / n.d. / n.d.,2.51,0/18
MFSQLMAYGSRYKNSVA,QASTRED,QQYHELPLS,En_HC,n.d. / n.d. / n.d. / 3.75 / n.d. / n.d.,3.75,1/18 (1.83)
KTMQSDLYESRNKNSIA,RASTRES,QQYHRLMLS,Ctrl,n.d. / n.d. / n.d. / n.d. / n.d. / n.d.,n.d.,0/18
KMSQSVLYESRNKNSVA,WASTRES,QQYHRLILS,Ctrl,n.d. / n.d. / n.d. / n.d. / n.d. / n.d.,n.d.,0/18
MIAQGLRGVGRNKNSVA,NAQTRYS,QHYHRLPLS,En_HC,n.d. / n.d. / n.d. / n.d. / n.d. / n.d.,n.d.,1/18 (1.92)
IVSQLMLWGMHAKNSIA,EAETRPN,QQYDRLPLM,En_Gen,n.d. / n.d. / n.d. / n.d. / n.d. / n.d.,n.d.,0/18

The first 7 entries again:

{"CDR-L1": "KLSQSVLYEWRNKNSVA", "CDR-L2": "NASTRES", "CDR-L3": "QQYHRLPLS", "group": "GP_Gen", "replicates, log10 nM": "-0.38 / -0.37 / -0.60 / -0.53 / -0.53 / -0.44", "mean log10 Kd (nM)": "-0.47", "control signals": "0/18"}
{"CDR-L1": "KLSQQMLYESRNKNNVA", "CDR-L2": "AASQRED", "CDR-L3": "QQYHRLPLS", "group": "GP_Gibbs", "replicates, log10 nM": "-0.20 / -0.44 / -0.32 / -0.63 / -0.67 / -0.41", "mean log10 Kd (nM)": "-0.44", "control signals": "1/18 (2.33)"}
{"CDR-L1": "KLSQSVLYESRNKNSVA", "CDR-L2": "NGSQRES", "CDR-L3": "QQYHRLPLS", "group": "GP_Gen", "replicates, log10 nM": "-0.31 / -0.32 / -0.52 / -0.62 / -0.41 / -0.24", "mean log10 Kd (nM)": "-0.40", "control signals": "1/18 (2.55)"}
{"CDR-L1": "KLSQSNDYEDRNANNVA", "CDR-L2": "NASQRES", "CDR-L3": "QQYHRLPLS", "group": "GP_Gibbs", "replicates, log10 nM": "-0.23 / -0.04 / -0.45 / -0.49 / -0.22 / -0.10", "mean log10 Kd (nM)": "-0.25", "control signals": "0/18"}
{"CDR-L1": "KFSQSDLYESRNKNSVA", "CDR-L2": "DASTRES", "CDR-L3": "QQYHRLPLS", "group": "GP_Gen", "replicates, log10 nM": "-0.32 / -0.04 / -0.19 / -0.37 / -0.27 / -0.14", "mean log10 Kd (nM)": "-0.22", "control signals": "0/18"}
{"CDR-L1": "KSPQGVLYESRNKNSVA", "CDR-L2": "GASLRES", "CDR-L3": "QQYHRLPLS", "group": "GP_HC", "replicates, log10 nM": "-0.19 / -0.18 / -0.13 / -0.26 / 0.05 / -0.01", "mean log10 Kd (nM)": "-0.12", "control signals": "1/18 (2.31)"}
{"CDR-L1": "KLKQSWLYESRNKNSVA", "CDR-L2": "NASTRMS", "CDR-L3": "QQYHRLPLS", "group": "GP_Gen", "replicates, log10 nM": "-0.07 / 0.02 / -0.23 / -0.29 / -0.02 / 0.00", "mean log10 Kd (nM)": "-0.10", "control signals": "0/18"}